## Apparent affinities of Ab-14 variants for a coronavirus HR2 peptide

The measurements come from Engelhart et al. 2022 (doi:10.1038/s41597-022-01779-4) through the FLAb antibody collection.

The target is the same throughout: PDVDLGDISGINAS, from the HR2 region of SARS-CoV-2 spike.

Each scFv is VH, a (GGGGS)3 linker, VL, as in the parent Ab-14, and differs from it in the CDRs of the light chain only.
VH: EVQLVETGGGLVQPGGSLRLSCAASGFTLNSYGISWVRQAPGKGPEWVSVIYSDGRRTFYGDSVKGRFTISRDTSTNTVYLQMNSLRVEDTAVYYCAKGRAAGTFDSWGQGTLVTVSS
VL: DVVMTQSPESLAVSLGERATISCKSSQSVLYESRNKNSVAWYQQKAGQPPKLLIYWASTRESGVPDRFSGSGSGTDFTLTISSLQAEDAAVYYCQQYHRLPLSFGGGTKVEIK

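The parent was found by panning a naive human phage display library on the peptide. Library AAYL50 holds single substitutions and randomly drawn double and triple substitutions in the CDRs. The scFvs were displayed on barcoded MATa yeast, the peptide on MATalpha yeast. After mating in shaken culture at 30 °C for 16 h, diploids were selected and their barcode pairs sequenced. A regression on co-assayed BCL2-family reference pairs converts the normalised counts of each replicate to an apparent Kd. Mating was done three times.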

The whole VL of each variant is written out.
Values are log10 of the apparent Kd in nM; lower means stronger binding.
Averages over replicates are reported, and they cover detected replicates only.
Where no diploid with the target was found in any replicate, the entry reads "nd": below detection, most likely a poor binder, though not proof of it.
As a blank, each scFv also met three strains without target: over library AAYL50, 18% of these pairings were detected, typically at 4.19 and seldom below 2.99.
Parent in this assay: reference entry 0.65, copy in this library 1.68.

With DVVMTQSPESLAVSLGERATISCKSSQSVLYESCNKPSVAWYQQKAGQPPKLLIYWISTRESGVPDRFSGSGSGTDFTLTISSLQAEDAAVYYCQQYHRLPLSFGGGTKVEIK the result was nd (0 of 3 replicates).
With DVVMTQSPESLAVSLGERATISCGSFTSVLYESRNKNSVAWYQQKAGQPPKLLIYWASTRESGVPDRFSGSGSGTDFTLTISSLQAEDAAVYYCQQYHRLPLSFGGGTKVEIK the result was 3.03 (3 of 3 replicates).
With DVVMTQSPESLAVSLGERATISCKSRQSVLYHSRNKNSPAWYQQKAGQPPKLLIYWASTRESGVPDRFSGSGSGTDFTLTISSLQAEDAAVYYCQQYHRLPLSFGGGTKVEIK the result was 5.21 (1 of 3 replicates).
With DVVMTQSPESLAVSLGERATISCKFSQSVLHESRNKNSVAWYQQKAGQPPKLLIYWASTRESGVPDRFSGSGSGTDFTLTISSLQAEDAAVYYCQQYHPLPLSFGGGTKVEIK the result was 4.31 (1 of 3 replicates).
With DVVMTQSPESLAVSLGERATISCKSQQSVLYESRNKNSVAWYQQKAGQPPKLLIYWASTRESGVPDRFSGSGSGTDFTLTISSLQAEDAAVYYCQQYWRCPLSFGGGTKVEIK the result was nd (0 of 3 replicates).
With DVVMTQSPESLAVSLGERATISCISSQSVLYESRSKNSVAWYQQKAGQPPKLLIYWASTRESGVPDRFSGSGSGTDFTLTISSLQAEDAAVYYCQNYHRLPLSFGGGTKVEIK the result was 2.71 (3 of 3 replicates).
With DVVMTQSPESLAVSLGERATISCKSSQSVLYESRNKNSVAWYQQKAGQPPKLLIYWASTREDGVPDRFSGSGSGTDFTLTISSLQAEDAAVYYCQQYHRIPLSFGGGTKVEIK the result was 0.97 (3 of 3 replicates).
With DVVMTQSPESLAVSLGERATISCKSSCSVLYESRNKNSVGWYQQKAGQPPKLLIYWASNRESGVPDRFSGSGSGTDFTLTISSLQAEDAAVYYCQQYHRLPLSFGGGTKVEIK the result was nd (0 of 3 replicates).
With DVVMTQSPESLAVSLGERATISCKSSQSVLYESRNLNSVAWYQQKAGQPPKLLIYWASTRTWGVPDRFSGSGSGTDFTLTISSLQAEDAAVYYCQQYHRLPLSFGGGTKVEIK the result was 2.49 (3 of 3 replicates).
With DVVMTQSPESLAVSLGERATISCKSSQTVLYESRNKGSVAWYQQKAGQPPKLLIYWASTRESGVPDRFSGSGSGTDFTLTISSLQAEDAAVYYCQQYHRLPLSFGGGTKVEIK the result was nd (0 of 3 replicates).
With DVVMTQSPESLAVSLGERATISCKSEQSVLYESRNKNSVAWYQQKAGQPPKLLIYWMSHRESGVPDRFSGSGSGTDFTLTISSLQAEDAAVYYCQQYHRLPLSFGGGTKVEIK the result was 3.19 (1 of 3 replicates).
With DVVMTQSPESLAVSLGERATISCKSSQSVLYESRNKNSKMWYQQKAGQPPKLLIYWASTRESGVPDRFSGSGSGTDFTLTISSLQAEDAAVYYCQQYHRLPYSFGGGTKVEIK the result was 5.06 (2 of 3 replicates).
With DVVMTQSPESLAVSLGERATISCKWSQSVLYESRNKNSQAWYQQKAGQPPKLLIYWASTRESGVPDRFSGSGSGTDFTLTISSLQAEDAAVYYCQQYHRLPLSFGGGTKVEIK the result was 4.36 (3 of 3 replicates).
With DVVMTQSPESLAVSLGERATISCKSSQSVLYESRNKNSVAWYQQKAGQPPKLLIYWASTHESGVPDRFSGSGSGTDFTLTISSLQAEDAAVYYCQQYSRLVLSFGGGTKVEIK the result was 4.67 (2 of 3 replicates).
With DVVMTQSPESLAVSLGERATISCKSSQSVLYESRNKNSVAWYQQKAGQPPKLLIYWAITRECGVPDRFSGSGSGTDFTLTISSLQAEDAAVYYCQQFHRLPLSFGGGTKVEIK the result was nd (0 of 3 replicates).
With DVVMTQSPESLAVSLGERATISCKSSQSVLYSSRNKNSVAWYQQKAGQPPKLLIYWASTRESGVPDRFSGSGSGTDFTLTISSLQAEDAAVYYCQQYHRLGGSFGGGTKVEIK the result was 2.58 (3 of 3 replicates).
With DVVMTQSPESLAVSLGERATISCKSSPSVLYESRNKNSVAWYQQKAGQPPKLLIYWASTREPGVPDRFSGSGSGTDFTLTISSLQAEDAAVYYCQQYHRLPLYFGGGTKVEIK the result was 2.18 (3 of 3 replicates).
With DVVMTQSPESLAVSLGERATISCKSSQSVLYESRNVNIVAWYQQKAGQPPKLLIYWASTRESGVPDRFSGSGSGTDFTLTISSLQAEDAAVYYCQQYHRLKLSFGGGTKVEIK the result was 5.33 (2 of 3 replicates).
With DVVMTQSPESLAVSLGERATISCKSSQSVLYEPRNKNTVAWYQQKAGQPPKLLIYWASTRESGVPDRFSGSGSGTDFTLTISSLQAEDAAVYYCQQYHRLALSFGGGTKVEIK the result was nd (0 of 3 replicates).
With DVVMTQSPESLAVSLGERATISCKSSNSVLTESRNKNSVAWYQQKAGQPPKLLIYWASTRESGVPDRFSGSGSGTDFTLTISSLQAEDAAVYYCQQYQRLPLSFGGGTKVEIK the result was 0.40 (3 of 3 replicates).
With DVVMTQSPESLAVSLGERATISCKSKQSVLYESRNKNSVAWYQQKAGQPPKLLIYWASTRESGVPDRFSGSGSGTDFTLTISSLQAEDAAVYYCQYYHRLHLSFGGGTKVEIK the result was 3.93 (1 of 3 replicates).
With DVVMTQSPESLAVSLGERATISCKSSQSVLYESRNKNRVAWYQQKAGQPPKLLIYWASTSEAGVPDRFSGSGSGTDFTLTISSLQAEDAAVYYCQQYHRLPLSFGGGTKVEIK the result was 4.78 (2 of 3 replicates).
With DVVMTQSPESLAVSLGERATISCKSSQSVLYESRNKNSVAWYQQKAGQPPKLLIYWASTRESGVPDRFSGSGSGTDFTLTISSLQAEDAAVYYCQGYHRLLSSFGGGTKVEIK the result was 4.38 (1 of 3 replicates).

The opening 3 entries, copied out:

For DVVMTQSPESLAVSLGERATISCKSSQSVLYESCNKPSVAWYQQKAGQPPKLLIYWISTRESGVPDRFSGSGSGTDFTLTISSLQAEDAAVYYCQQYHRLPLSFGGGTKVEIK, the assay gave nd (0 of 3 replicates).
For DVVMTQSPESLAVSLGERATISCGSFTSVLYESRNKNSVAWYQQKAGQPPKLLIYWASTRESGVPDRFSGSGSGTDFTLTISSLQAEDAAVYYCQQYHRLPLSFGGGTKVEIK, the assay gave 3.03 (3 of 3 replicates).
For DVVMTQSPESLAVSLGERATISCKSRQSVLYHSRNKNSPAWYQQKAGQPPKLLIYWASTRESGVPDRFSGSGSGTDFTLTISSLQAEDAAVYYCQQYHRLPLSFGGGTKVEIK, the assay gave 5.21 (1 of 3 replicates).